Tested on: opiate receptor sites
Conditions: isolated guinea pig ileum twitch response, dose response curve compared with Met enkephalin
Source text: The test used for the detection of their agonist activity at opiate receptor sites is that employing the transmurally stimulates guinea pig ileum preparation described in Kosterlitz et al., Brit. J. Pharmacol, and Chemotherapy 33. 266-276 (1968). […] Exp. Ther. 125, 237 (1959) and by the rat tail flick test (intravenous administration) according to Jansen et al., Arzneim Forsch. 13, 266 (1963).
In the above mentioned test method of Kosterlitz et al male or female guinea pigs (Duncan Hartley strain) are killed by a blow on the head and a portion of the ileum removed and set up in an isolated organ bath of 50 ml volume. A `twitch` response is produced by low frequency (0.1 Hz) stimulation with 0.5 msec rectilinear pulses. A test compound is dissolved in distilled water to produce a stock solution of concentration 1 mg/ml. Serial dilutions are carried out using Krebs solution to produce concentrations of 10 μg, 1 μg and 0.1 μg/ml. The compound is tested by adding between 0.1-0.3 ml of the solutions to the organ bath. A dose response curve is then drawn and compared with that for Met enkephalin.

CN1CC[C@]23c4c5ccc(O)c4O[C@H]2[C@@H](O)C=C[C@H]3[C@H]1C5 [Morphine, reference compound]
G.P.I. Potency (X Met enkephalin): ≈ 1.0 X Met enkephalin
